In US6187572A, “Method of inactivation of viral and bacterial blood contaminants” (Baxter International Inc., priority 1993, dated 2001):

Tested on: .phi.6 virus
Settings: Example 10; 1%, 353 kr; words

CCCCOP(=O)(OCCCC)OCCCC was tested, and the “viral inactivation with X-ray in hydrated and lyophilized plasma” value was “substantially enhanced”.
